Measurements as given in US11319303B2 (WIGEN BIOMEDICINE TECHNOLOGY (SHANGHAI) CO., LTD., priority 2017, dated 2022).

Target: LC3B (Homo sapiens, UniProt Q9GZQ8)
Experiment: Fluorescence Polarization (FP) Assay: displacement of FITC-labeled peptide from GST-LC3B
Format: binding
Settings: GST-LC3B 180 nM, FITC-labeled peptide 18 nM, 25° C.

Q: With Cc1ccc(NC(=O)CN2CCN(CCNC=C3C(=O)CC(c4cccc5[nH]ccc45)CC3=O)CC2)cc1 (centres unmarked) as the molecule, how does the IC50 read?
A: < 3 µM

Q: With O=C1CC(c2cc(O)ccc2Br)CC(=O)C1=CNCCN1CCN(CCO)CC1 (centres unmarked) as the molecule, how does the IC50 read?
A: < 3 µM

Q: With COC(=O)N1CCN(CCNC=C2C(=O)CC(c3ccc(C)cc3)CC2=O)CC1 (centres unmarked) as the molecule, how does the IC50 read?
A: < 3 µM

Q: For CC(C)(C)OC(=O)NCCCCCCNC=C1C(=O)CC(c2ccccc2)CC1=O (centres unmarked), which IC50 is on record?
A: 100 to 1000 µM

Q: How did the IC50 turn out when Cc1ccc(NC(=O)CN2CCN(CCNC=C3C(=O)CC(c4cccc5[nH]cc(Cl)c45)CC3=O)CC2)cc1 (centres unmarked) was run?
A: < 3 µM

Q: Which IC50 does the source give for COC(=O)c1ccc(C2CC(=O)C(=CNCCN3CCOCC3)C(=O)C2)cc1 (centres unmarked) here?
A: < 3 µM

Q: How did the IC50 turn out when COC(=O)c1ccc(NC=C2C(=O)CC(c3ccccc3)CC2=O)nc1 (centres unmarked) was run?
A: 15 to 100 µM

Q: COC(=O)c1ccccc1C1CC(=O)C(=CNCCN(C)C)C(=O)C1 (centres unmarked) was tested. Which IC50 did it give?
A: < 3 µM

Q: How did the IC50 turn out when CCOC(=O)c1csc(NC=C2C(=O)CC(c3ccccc3)CC2=O)n1 (centres unmarked) was run?
A: < 3 µM

Q: How did the IC50 turn out when CC(=O)OCC(NCCN1CCN(CCO)CC1)=C1C(=O)CC(c2ccccc2)CC1=O (centres unmarked) was run?
A: 100 to 1000 µM

Q: N=C(N)CNC=C1C(=O)CC(c2ccccc2)CC1=O (centres unmarked) was tested. Which IC50 did it give?
A: 3 to 15 µM

Q: CC(C)(C)OC(=O)N1CCC(CNC=C2C(=O)CC(c3ccccc3)CC2=O)CC1 (centres unmarked) was tested. Which IC50 did it give?
A: 100 to 1000 µM

Q: For CN(C)C=C1C(=O)CC(c2cccc(C(=O)NCCCc3ccccc3)c2)CC1=O (centres unmarked), which IC50 is on record?
A: 3 to 15 µM

Q: How did the IC50 turn out when CC(C)(C)OC(=O)N1CCC(NC=C2C(=O)CC(c3ccccc3)CC2=O)CC1 (centres unmarked) was run?
A: 100 to 1000 µM

Q: CN(C)CCNC=C1C(=O)CC(C(=O)Nc2ccc(C(F)(F)F)cc2)CC1=O (centres unmarked) was tested. Which IC50 did it give?
A: 3 to 15 µM

Q: O=C1CC(/C=C/c2ccccc2)CC(=O)C1=CNCCN1CCN(CCO)CC1 (centres unmarked) was tested. Which IC50 did it give?
A: 3 to 15 µM

Q: How did the IC50 (tested form: Na salt) turn out when O=C1CC(c2cccs2)CC(=O)C1=CO (single isomer, unassigned) was run?
A: 3 to 15 µM

Q: With COC(=O)c1cccc(C2CC(=O)C(=CN(C)C)C(=O)C2)c1 (centres unmarked) as the molecule, how does the IC50 read?
A: < 3 µM

Q: With CN(C)C=C1C(=O)CC(c2cccc(C(N)=O)c2)CC1=O (centres unmarked) as the molecule, how does the IC50 read?
A: 3 to 15 µM

Q: How did the IC50 turn out when CN(C)CCNC=C1C(=O)CC(c2ccccc2NC(=O)OC(C)(C)C)CC1=O (centres unmarked) was run?
A: < 3 µM

Q: For CN(CCNC=C1C(=O)CC(c2ccccc2)CC1=O)C(=O)OC(C)(C)C (centres unmarked), which IC50 is on record?
A: 100 to 1000 µM

Q: For Cc1ccc(C2CC(=O)C(=CNCCN3CCN(C(=S)Nc4ccc(F)cc4)CC3)C(=O)C2)cc1 (centres unmarked), which IC50 is on record?
A: 3 to 15 µM

Q: Which IC50 does the source give for COC(=O)c1ccc(C2CC(=O)C(=CN(C)C)C(=O)C2)cc1 (centres unmarked) here?
A: < 3 µM
